Water solubility values, as collected for the OPERA models

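The OPERA project collected these measurements from public sources as training and test data for property models. A listed value is a point estimate from one report or more. Method, purity and exact conditions of the single measurements are not given. Where a salt, mixture or single isomer is drawn, the source does not say that exactly this form was tested. Some entries may be limits or estimates that an upstream database listed as plain numbers.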

Solubility in water is on a log10 molar scale (set defined at 25 °C).
"–" marks a cell with nothing listed here.

| water solubility (log10 mol/L) | SMILES | name |
|---|---|---|
| -2.327 | CC(C)=NNC(=O)Nc1ccccc1 | 2-Isopropylidene-N-phenylhydrazinecarboxamide |
| -1.178 | O=C(O)N1CCN(CCN2CCN(C(=O)O)CC2)CC1 | 4,4'-(Ethane-1,2-diyl)di(piperazine-1-carboxylic acid) |
| -4.265 | CC(=O)O[C@]1(C(C)=O)CC[C@H]2[C@@H]3C=CC4=CC(=O)C=C[C@]4(C)[C@H]3CC[C@@]21C | 17-Acetoxy-1,4,6-pregnatriene-3,20-dione |
| -1.79 | Cc1cc(NC(=N)O)ccc1F | (4-FLUORO-3-METHYLPHENYL)UREA |
| -8.289 | O=C(O)C(F)(F)C(F)(F)C(F)(F)C(F)(F)C(F)(F)C(F)(F)C(F)(F)C(F)(F)C(F)(F)C(F)(F)C(F)(F)C(F)(F)C(F)(F)C(F)(F)C(F)(F)C(F)(F)C(F)(F)F | Perfluorooctadecanoic acid |
| -1.55 | CCCCOCC | 1-Ethoxybutane |
| -3.651 | Nc1ccc(S(=O)(=O)Nc2cnc3c(n2)CCCC3)cc1 | – |
| -2.2 | CCCC(=O)Nc1ccc(OCC(O)CNC(C)C)c(C(C)=O)c1 (centres undefined) | Acebutolol |
| -1.827 | CC(SCSC(C)C(=O)O)C(=O)O (centres undefined) | 2,2'-[Methylenebis(thio)]bis-propanoic acid |
| -7.607 | Nc1nc(/C(=N/OC(c2ccccc2)(c2ccccc2)c2ccccc2)C(=O)N[C@H]2C(=O)N3C(C(=O)OC(c4ccccc4)c4ccccc4)=C(CO)CS[C@@H]23)ns1 | – |
| -0.947 | C[C@@H](OC(=S)N(C)C)C(=O)O | (2R)-2-[(Dimethylcarbamothioyl)oxy]propanoic acid |
| -4.828 | COC(=O)C1=C(C)NC(C)=C(C(=O)OCC(C)C)C1c1ccccc1[N+](=O)[O-] (centres undefined) | Nisoldipine |
| -2.919 | O=C(O)Cc1ccc(Cl)cc1Cl | 2,4-Dichlorophenylacetic acid |
| -12.35 | CCCCCCCCCCCCOC(=O)C1=C(C)NC(C)=C(C(=O)OCCCCCCCCCCCC)C1 | Didodecyl 1,4-dihydro-2,6-dimethylpyridine-3,5-dicarboxylate |
| -3.839 | NC1=CC(=O)C(=O)c2ccccc21 | 4-Amino-1,2-naphthoquinone |
| -1.894 | CN(C)C(=O)NCC1(C)CC(NC(=O)N(C)C)CC(C)(C)C1 (centres undefined) | – |
| -1.16 | NC(=O)c1ccccc1C(F)(F)F | 2-Trifluoromethylbenzamide |
| -1.977 | CCCC(=O)OCOc1ccccc1C(N)=O | (2-Carbamoylphenoxy)methyl butyrate |
| -4.096 | O=Cc1cc(I)cc(I)c1O | 3,5-Diiodosalicylaldehyde |
| -0.189 | CCCC[N+](CC)(CCCC)CCCCCC[N+](CC)(CCCC)CCCC.[OH-].[OH-] | – |
| -3.125 | O=c1cnc2[nH]c(=O)[nH]c(=O)c2[nH]1 | 2,4,6(3H)-Pteridinetrione, 1,5-dihydro- |
| 0.148 | O=C([O-])C(=O)CS.[Na+] | Sodium 3-mercaptopyruvate |
| -4.62 | Cn1cc[nH]c1=S | Methimazole |
| -3.26 | CC1CCCC(C)N1C(=O)COC(=O)c1ccccc1 (centres undefined) | 2-(2,6-Dimethylpiperidin-1-yl)-2-oxoethyl benzoate |
| -6.65 | Clc1ccc(Oc2cccc(Cl)c2Cl)c(Cl)c1 | – |
| -3.02 | NS(=O)(=O)c1cc2c(s1)S(=O)(=O)CCC2=O | – |
| -7.825 | Cc1cc(C)c(Nc2ccc(Nc3c(C)cc(C)cc3C)c3c2C(=O)c2ccccc2C3=O)c(C)c1 | C.I. Solvent Blue 104 |
| -3.928 | CCN(CC)C(=S)SSC(=S)N(CC)CC | Disulfiram |
| -2.753 | N=C(NN)c1ncnc2[nH]cnc12 | 1H-Purine-6-carboximidohydrazide |
| -1.939 | CS(=O)(=O)c1c(F)c(F)c(F)c(F)c1F | Sulfone, methyl pentafluorophenyl |
| -7.12 | Clc1cc(Cl)c(Oc2c(Cl)cccc2Cl)cc1Cl | 2,2',4,5,6'-Pentachlorodiphenyl ether |
| -2.815 | O=[N+]([O-])c1ccc2[nH]cnc2c1 | 6-Nitrobenzimidazole |
| -4.61 | O=c1oc(-c2ccccc2)nc2ccccc12 | 2-Phenyl-3,1-benzoxazin-4-one |
| -1.08 | CC(=O)c1ccc2c(c1)N(CCCN(C)C)c1ccccc1S2.O=C(O)/C=C\C(=O)O | Acetopromazine maleate |
| 0.405 | CCC(C(=O)O)c1ccccc1 (centres undefined) | Benzeneacetic acid, .alpha.-ethyl- |
| -3.034 | COC(=O)C(CCn1cnc2c(Cl)nc(N)nc21)C(=O)OC | – |
| -1.93 | O=S1(=O)CC(Cl)C(Cl)C1 (centres undefined) | 3,4-Dichlorosulfolane |
| -7.69 | CCCCCCCC/C=C\CCCCCCCC(=O)OCC(CC)(CO)COC(=O)CCCCCCC/C=C\CCCCCCCC | Trimethylolpropane dioleate |
| -1.98 | CN1C(=O)CC(C)(c2ccccc2)C1=O (centres undefined) | Methsuximide |
| -3.839 | CCCS(=O)(=O)Nc1ccc(F)c(C(=O)c2c[nH]c3ncc(Br)cc23)c1F | – |
| -7.606 | Nc1nc(/C(=N/OC(c2ccccc2)(c2ccccc2)c2ccccc2)C(=O)N[C@H]2C(=O)N3C(C(=O)OC(c4ccccc4)c4ccccc4)=C(C=O)CS[C@@H]23)ns1 | – |
| -3.497 | O=C(O)CCCCCC(C(=O)O)(c1ccccc1)c1ccccc1 | 2,2-Diphenyloctanedioic acid |
| -3.956 | O=C1CN(/N=C/C=C/c2ccc([N+](=O)[O-])o2)C(=S)N1 | – |
| -7 | Clc1cc(Cl)c(Oc2ccccc2Cl)cc1Cl | – |
| -1.673 | Nc1ccc(N)c(S(=O)(=O)O)c1 | 2,5-Diaminobenzenesulfonic acid |
| -3.202 | CC1(C)S[C@@H]2[C@H](NC(=O)Cc3ccccc3)C(=O)N2[C@H]1C(=O)O | Penicillin G |
| -2.417 | CC(C)(C)C1CCC(=O)CC1 | 4-tert-Butylcyclohexanone |

3 of these entries, quoted again:

| SMILES | name | water solubility (log10 mol/L) |
|---|---|---|
| Clc1ccc(Oc2cccc(Cl)c2Cl)c(Cl)c1 | – | -6.65 |
| NC1=CC(=O)C(=O)c2ccccc21 | 4-Amino-1,2-naphthoquinone | -3.839 |
| CCCS(=O)(=O)Nc1ccc(F)c(C(=O)c2c[nH]c3ncc(Br)cc23)c1F | – | -3.839 |

Source: data files of OPERA 2.9 (Mansouri et al.), github.com/kmansouri/OPERA.